These results are taken from the supplement of paper PMC12613149.

Data set [1] in a line: collision cross section (TIMS, N2 drift gas) of the primary ion; higher = larger gas-phase ion size. The following applies: ionization mode: ESI+. How it is done: (§1)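 Reference mixture of environmental contaminants analysed by RP-LC (BEH C18, 50 °C; ESI+ with water/MeOH plus formic acid and ammonium formate, ESI- with ammonium bicarbonate) coupled to a timsTOF Pro 2 with trapped ion mobility in nitrogen (ramp/accumulation 100 ms). CCS was calibrated with Agilent tune mix (CCS compendium) and averaged over five injections at 0.5-500 ng/mL. The table reports the lowest-CCS (putative monomer) peak; retention times are on the same gradient.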

Data set [2] is described as follows: reversed-phase LC retention time (C18, 15 min MeOH gradient); higher = more hydrophobic / later elution. The following applies: ionization mode: ESI+. How it is done:
as §1

`CCC[N+](CCC)(CCC)CCC` [Tetrapropylammonium]: the collision cross section in data set [1] (ion species: [M]+) is 145.78 Å². For the same compound, the “reversed-phase LC retention time” value in data set [2] (ion species: [M]+) amounted to 7.43 min.

`CCOP(=S)(OCC)Oc1ncn(-c2ccccc2)n1` [Triazophos] showed a collision cross section in data set [1] (ion species: [M+H]+) of 171.3 Å². Moreover, the “reversed-phase LC retention time” value in data set [2] (ion species: [M+H]+) stood at 14.5 min.
